Measured values as given in paper PMC6856717, “Potent hERG channel inhibition by sarizotan, an investigative treatment for Rett Syndrome” (Journal of Molecular and Cellular Cardiology, 2019).

Protein sequences, listed by entry. Tags and fused reporters are not part of them. Lines headed by an entry give the natural chain unless they say otherwise; changes in a name come on top.
UniProt Q12809: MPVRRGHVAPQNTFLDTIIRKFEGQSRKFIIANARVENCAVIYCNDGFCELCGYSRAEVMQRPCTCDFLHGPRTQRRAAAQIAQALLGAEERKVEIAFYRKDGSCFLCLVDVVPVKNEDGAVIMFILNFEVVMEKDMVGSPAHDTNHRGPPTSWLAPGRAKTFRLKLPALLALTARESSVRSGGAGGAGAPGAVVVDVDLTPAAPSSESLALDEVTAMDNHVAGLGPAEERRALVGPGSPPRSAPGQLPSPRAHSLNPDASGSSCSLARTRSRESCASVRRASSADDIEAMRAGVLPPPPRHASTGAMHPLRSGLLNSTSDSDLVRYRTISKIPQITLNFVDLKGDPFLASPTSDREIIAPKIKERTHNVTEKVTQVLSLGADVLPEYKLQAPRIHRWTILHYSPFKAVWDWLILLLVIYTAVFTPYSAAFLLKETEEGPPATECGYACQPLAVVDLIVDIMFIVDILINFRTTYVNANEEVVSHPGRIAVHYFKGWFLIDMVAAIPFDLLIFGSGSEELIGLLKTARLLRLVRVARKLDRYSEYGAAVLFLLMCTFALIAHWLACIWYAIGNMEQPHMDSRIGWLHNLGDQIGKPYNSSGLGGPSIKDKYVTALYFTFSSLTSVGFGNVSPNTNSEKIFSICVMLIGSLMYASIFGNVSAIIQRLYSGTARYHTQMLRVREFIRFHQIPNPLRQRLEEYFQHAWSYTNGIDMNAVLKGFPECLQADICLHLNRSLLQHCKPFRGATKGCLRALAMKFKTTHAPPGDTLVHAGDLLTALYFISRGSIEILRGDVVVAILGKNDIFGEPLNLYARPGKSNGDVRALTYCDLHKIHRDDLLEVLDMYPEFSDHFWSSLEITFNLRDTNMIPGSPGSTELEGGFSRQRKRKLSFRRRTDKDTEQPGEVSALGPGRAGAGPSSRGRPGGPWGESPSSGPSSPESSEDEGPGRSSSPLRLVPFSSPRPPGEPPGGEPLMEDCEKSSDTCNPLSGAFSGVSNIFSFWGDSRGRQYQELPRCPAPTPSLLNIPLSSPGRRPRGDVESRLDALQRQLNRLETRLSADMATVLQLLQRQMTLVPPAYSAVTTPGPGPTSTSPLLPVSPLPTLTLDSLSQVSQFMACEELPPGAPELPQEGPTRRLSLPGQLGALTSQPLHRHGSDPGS

Target: T1, hERG potassium channel (wild-type) (Homo sapiens, UniProt Q12809)
T1 construct: gene KCNH2
Experiment: cell-based

## Fc1ccc(-c2cncc(CNC[C@H]3CCc4ccccc4O3)c2)cc1 [sarizotan]
  IC50: 183 ± 51 nM
